{
  "source": "patent US20120135089A1",
  "about": "“E3 LIGASE INHIBITORS” (priority 2009, published 2012)",
  "key": {"Mdm2 and p53 levels": {"system": "Mdm2 and p53 levels", "test": "Western blot of Mdm2 and p53 protein levels in cell lines", "assay_type": "cell-based, human", "conditions": "6 hours", "description": "Cells were plated in 384-well format and treated with MG132 (2 hours) or cycloheximide (30 minutes). Steadylite luminescence buffer (PerkinElmer) was added and the relative luminescence levels determined on a Victor3 Plate Reader. Each graph represents the median of 5 replicates normalized to a no treatment control, and one standard deviation is shown. The EC50 for MEL23 and MEL24 are 2.7 μg/ml and 3.0 μg/ml (7.5 μM and 9.2 μM) respectively. The graphs and EC50 values were determined using Graphpad PRISM®. […] U2OS, RKO, and HCT116 cells (p53 wild-type) were incubated with 5 μg/ml (14 μM) of MEL23, 5 μg/ml (15 μM) of MEL24, or 10 μM of MG132 for 6 hours. Cells were lysed and analyzed by Western blotting using anti-Mdm2, anti-p53, and anti-eIF4E antibodies. NT indicates a no treatment control. […] MCF7 cells (p53 wild-type) were incubated with 30 μg/ml (51 μM) etoposide alone or in combination with 50 μM AlIn or 5 μg/ml (14 μM) MEL23, or 5 μg/ml (15 μM) MEL24 for 16 hours. Cells were lysed and analyzed by Western blotting using anti-MDMX and anti-actin antibodies.\nH1229 cells were transfected with Mdm2-Flag or remained untransfected. […] Cells were lysed and analyzed by Western blotting using anti-Mdm2 and anti-actin antibodies. […] Cells were lysed and analyzed by Western blotting using anti-Mdm2, anti-p53, and anti-actin antibodies. […] Cells were lysed and analyzed by Western blotting using anti-Mdm2, anti-p53, anti-phospho-Ser15 p53, and anti-eiF4E antibodies.\nCells were seeded and treated with the indicated compound(s). […] Protein content was quantified using a Biorad protein assay reagent (Bio-Rad Laboratories, Hercules, Calif., Cat. No. 500-0006). […]\nReferring now to FIG. 27f, endogenous Mdm2 and p53 protein levels are increased with MEL3 but not MEL4 treatment as shown. […] Cells were lysed and analyzed by Western blotting using anti-Mdm2, anti-p53, and anti-actin antibodies. […]\nReferring now to FIG. 28e, endogenous Mdm2 and p53 protein levels with MEL17 treatment are shown. […] Cells were lysed and analyzed by Western blotting using anti-Mdm2, anti-p53, and anti-actin antibodies. […]"}, "GST-Mdm2(400-491)": {"biological_target": "GST-Mdm2(400-491) (Homo sapiens, UniProt Q00987)", "test": "in vitro ubiquitination assay, Mdm2 RING domain", "assay_type": "biochemical", "description": "Radiolabeled in vitro ubiquitination assays were carried out in 30 μl reaction mixtures with ^32P-labeled ubiquitin. 500 ng GST-Mdm2 (residues 400-491) and GST-MdmX (residues 410-490) were used for the RING-RING reactions. The products of the reaction were resolved on a SDS-PAGE gel and visualized by autoradiography.\nReferring now to FIGS. 27c and d, in vitro ubiquitination reactions with dilutions of MEL3 and MEL4 are shown. Briefly, 25 ng of E1, 25 ng of Ubch5C, 1 μg of ubiquitin, and 500 ng of GST-Mdm2(400-491) were incubated with or without the indicated compound for 1 hour at 37° C. in ubiquitination buffer. Samples were analyzed by Western blotting with anti-GST. PC indicates positive control and NC indicates negative controls without UbCH5C protein. In FIG. 27c, compounds were tested at 120 μg/ml, and in FIG. 27(d) the MEL4 was tested in a 2-fold dilution series, 100, 50, 25, 12.5, 6.25, and 3.125 μg/ml. Brackets indicate slower migrating species of the proteins are the ubiquitin-conjugated forms."}, "60 tumor cell lines": {"system": "60 tumor cell lines", "test": "NCl60 screen (NIH)", "assay_type": "cell-based", "description": "MEL17 was also sent to the National Institutes of Health (NIH) for analysis in the NCl60 screen. This is a service provide by the NIH, that tests novel compounds for killing in 60 tumor cell lines. […] It was then tested in a hollow-fiber assay. 12 tumor cell lines were tested in two concentrations and at two sites, subcutaneous implants and intraperitoneal implants. A 50% or greater reduction in percent net growth in the treated samples compared to the vehicle control was considered a positive result, and given a score of 2. Out of a possible score of 96 (12 cell lines×2 concentrations×2 sites×a score of 2), MEL17 got a score of 4."}, "[1]": {"test": "preliminary in vivo mouse toxicity", "conditions": "all concentrations tested up to 400 mg/kg/dose"}},
  "data": [
    {"compound": "COc1cc(OC)c2c(=O)cc(-c3ccc(OC)c(-c4c(OC)cc(OC)c5c(=O)cc(-c6ccccc6)oc45)c3)oc2c1", "values": [
      {"measurement": "p53 levels in RKO and RKO-E6 cells", "setting": "Mdm2 and p53 levels; isogenic RKO and RKO-E6 (HPV-E6) cells", "value": "increases p53 levels in both RKO and RKO E6 cell lines"},
      {"measurement": "ubiquitination of Mdm2 RING domain (homo-complex)", "setting": "GST-Mdm2(400-491)", "value": "not"}
    ]},
    {"compound": "CC1CCN(Cc2cc(Cl)c3cccnc3c2O)CC1", "values": [
      {"measurement": "Mdm2 levels", "setting": "Mdm2 and p53 levels; RKO, U2OS, HCT116, 5 μg/ml", "value": "increased Mdm2 in U2OS but not RKO or HCT116"},
      {"measurement": "p53 levels", "setting": "Mdm2 and p53 levels; RKO, U2OS, HCT116, 5 μg/ml", "value": "increased p53 levels in RK0 and U2OS but not HCT116 cells"},
      {"measurement": "killing profile in 60 tumor cell lines", "setting": "60 tumor cell lines", "value": "unique and interesting killing profile"},
      {"measurement": "toxicity", "setting": "[1]", "value": "non-toxic"},
      {"measurement": "ubiquitination of Mdm2 RING domain (homo-complex)", "setting": "GST-Mdm2(400-491)", "value": "does not inhibit"}
    ]}
  ]
}
